Measurements taken from BindingDB's records for PubMed 9694962 (Memorial Sloan-Kettering Cancer Center, 1998).

Amino acid sequences for entries named in this document (tags omitted).
UniProt P42866, whole entry: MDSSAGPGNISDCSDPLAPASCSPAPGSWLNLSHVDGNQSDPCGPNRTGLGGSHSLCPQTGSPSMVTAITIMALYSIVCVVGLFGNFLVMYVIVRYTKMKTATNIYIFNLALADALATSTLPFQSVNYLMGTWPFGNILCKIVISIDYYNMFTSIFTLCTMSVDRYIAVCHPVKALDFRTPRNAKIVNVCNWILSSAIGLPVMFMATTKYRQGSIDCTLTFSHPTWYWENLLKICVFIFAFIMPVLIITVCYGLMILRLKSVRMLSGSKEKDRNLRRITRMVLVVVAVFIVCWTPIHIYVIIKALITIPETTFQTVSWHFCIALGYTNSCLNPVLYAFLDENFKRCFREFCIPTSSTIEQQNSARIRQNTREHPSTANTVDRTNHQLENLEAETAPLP
UniProt P33535, whole entry: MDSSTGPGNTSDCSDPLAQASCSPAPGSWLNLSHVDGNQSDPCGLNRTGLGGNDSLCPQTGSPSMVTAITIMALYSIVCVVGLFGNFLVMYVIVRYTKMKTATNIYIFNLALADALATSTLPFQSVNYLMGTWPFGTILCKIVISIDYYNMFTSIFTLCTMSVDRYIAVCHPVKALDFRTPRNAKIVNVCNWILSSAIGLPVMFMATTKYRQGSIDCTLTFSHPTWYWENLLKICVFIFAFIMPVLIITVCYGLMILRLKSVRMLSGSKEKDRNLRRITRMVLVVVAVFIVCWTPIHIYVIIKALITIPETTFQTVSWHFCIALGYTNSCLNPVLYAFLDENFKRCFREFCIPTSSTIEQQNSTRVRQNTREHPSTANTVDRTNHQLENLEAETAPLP

Columns and labels:
[1] = target: Mu-type opioid receptor (Mus musculus, UniProt P42866)
[2] = target: Mu-type opioid receptor (Rattus norvegicus, UniProt P33535)

Row | Compound | Ki [1] | Ki [2]
1 | CC(C)C[C@H](NC(=O)[C@H](Cc1ccccc1)NC(=O)CNC(=O)CNC(=O)[C@@H](N)Cc1ccc(O)cc1)C(=O)N[C@@H](CCCNC(=N)N)C(=O)N[C@@H](CCCCN)C(=O)N[C@@H](Cc1ccc(O)cc1)C(=O)N1CCC[C@H]1C(=O)N[C@@H](CCCCN)C(=O)O [CB0427223] | 3.59 nM and 2.15 nM | 
2 | C[C@@H](NC(=O)[C@@H](N)Cc1ccc(O)cc1)C(=O)NCC(=O)N(C)[C@@H](Cc1ccccc1)C(=O)NCCO [[tyrosyl-3,5-3H(N)]-D-Ala2-Mephe4-glyol5-enkephalin] |  | 0.62 nM and 1.49 nM

Values joined by “and” are separate entries in the source; they are usually repeats but may differ in a detail not shown here. Equal entries are not always repeated.
